Measured values as given in PubChem BioAssay AID720641 (ICCB-Longwood Screening Facility, Harvard Medical School, 2013).
This is a selection; strong and weak results do not stand in their true shares. Activity calls are given as the source filed them.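 How the source made its calls: active means relative growth at most 50% at the other temperature and 20+ points below 30 °C, or under 10% at both; inactive means the rest, inconclusive results apart.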

Assay: Staphylococcus aureus RN4220 growth blockers – two temperatures, LtaS inhibitor project, primary screen (AID 720641)
Conditions: S. aureus RN4220 growth, OD600, 20 h, 42 °C; hits give low values

With `CN(CCCl)CCCl` as the compound, how does the relative growth read?
The relative growth was inactive: 97.2%.
